# Assay results: PubChem BioAssay AID1479 (National Center for Advancing Translational Sciences (NCATS), 2009)
# Values joined by “and” are separate entries in the source; they are usually repeats but may differ in a detail not shown here. Equal values may be shown once. Only a part is listed here, and it is no random draw. Active and inactive are the calls of the source. Calls follow the shape of the dose curve; as a rule, active = well fitted curve in either direction with a large enough effect; inconclusive = small, poorly fitted or top-dose-only effect; inactive = flat fitted curve, though single readings scatter.
# Test: Total Fluorescence Counterscreen for Inhibitors of the Interaction of Thyroid Hormone Receptor and Steroid Receptor Coregulator 2
# Details: TRb/SRC2 Texas Red total fluorescence interference; at 106 µM (top of the series) unless noted
# % is scaled to controls: 0 for no effect and ±100 for the full control effect.
row,Compound,"fluorescence change, negative = quenching"
1,O=C(NC(Sc1ccncn1)C(Cl)(Cl)Cl)c1ccccc1 (stereo unspecified),inactive: -1.67%
2,Cc1c2non([O-])c-2c(C)[n+](=O)[n+]1[O-],inactive: -0.434%
3,Oc1ccccc1CNc1ccccn1,inactive: -0.226%
4,CC(C)OP(=O)(OC(C)C)SCCNS(=O)(=O)c1ccccc1,inactive: -8.64% [at 201 µM]
5,Nc1cc(N)c2nonc2c1[N+](=O)[O-],inactive: -0.486%
6,CC(C)CC(=O)NC(Sc1ccc(Cl)cc1)C(Cl)(Cl)Cl (stereo unspecified),inactive: -1.77%
7,Cc1ccc(N/C(=N/P(=O)(N2CCOCC2)N2CCOCC2)N2CCOCC2)cc1,inactive: -0.282%
8,NC(=O)c1cc([N+](=O)[O-])cc([N+](=O)[O-])c1N,inactive: -3.57%
9,CN1CCCC(OC(=O)C(c2ccccc2)c2ccccc2)C1 (stereo unspecified),inactive: 3.89%
10,Clc1ccc(Cl)c(NC2=NCC(CBr)S2)c1 (stereo unspecified),inactive: 5.54%
11,Cc1ccc(OP(=O)(Nc2nccs2)Oc2ccc(C)cc2)cc1,inactive: -2.32%
12,COc1ccccc1OP(=O)(Nc1ccc(C)cn1)Oc1ccccc1OC,inactive: -0.147% [at 53 µM]
13,CCN(/C(=N/P(=O)(N1CCOCC1)N1CCOCC1)N1CCOCC1)c1ccc(OC)cc1,inactive: -1.68%
14,C[N+]1=C2C=CC=CC=C2SC12C([N+](=O)[O-])=CC([N+](=O)[O-])=C[C-]2[N+](=O)[O-] (stereo unspecified),inactive: -4.96%
15,Nc1ccc([As](=O)(O)c2ccc(N)cc2)cc1,inactive: -0.995%
16,CC(=O)C1=CCCC2CCC1N2 (stereo unspecified),inactive: 5.03% and inactive: 1.22%

row,Compound,"fluorescence change, negative = quenching"
1,CC1CCN(C(=O)Oc2c(Cl)cc(Cl)c3cccnc23)CC1,inactive: 2.64%
2,CN(C)C(=O)OCCc1n(C)cc[n+]1C,inactive: 0.185%
3,CC(C)=N/N=C(\N)N[N+](=O)[O-],inactive: 1.17%
4,O=[N+]([O-])c1ccc([N+](=O)[O-])cc1,inactive: -3.36% [at 201 µM]
5,COc1ccc(C2=NCC(CBr)S2)cc1 (stereo unspecified),inactive: 0.462%
6,CCc1nc2c(n1)c1c(non1O)c1c2no[n+]1[O-],inactive: 9.62%
7,O=[N+]([O-])c1cc([N+](=O)[O-])c(CCNc2ccccc2)c([N+](=O)[O-])c1,inactive: -3.34%
8,Cc1ccc(NP(=O)(Oc2ccccc2)Oc2ccccc2)nc1,inactive: -1.45%
9,O=[N+]([O-])c1cccc2n[nH]nc12,inactive: -1.91%
10,CC(=O)N1C2C3N(C(C)=O)C1C1N(C(C)=O)C(C(N1C(C)=O)N3C(C)=O)N2C(C)=O,inactive: 1.24%
11,O=[N+]([O-])c1ncn(CCn2ncnc2[N+](=O)[O-])n1,inactive: -1.41%
12,CC(C)(C)C(=O)NC(Sc1ccncn1)C(Cl)(Cl)Cl (stereo unspecified),inactive: -1.27%
13,O=C(O)CNc1ccc([As](=O)(O)O)cc1,inactive: -2.22%
14,O=[N+]([O-])c1cccc(NC2=NCC(CBr)S2)c1 (stereo unspecified),inactive: -0.724%
15,O=C(Nc1cc([As](=O)(O)O)ccc1O)c1ccccc1,inactive: -1.78%
